The data set in a line: Evaluation of Bioavailability in Male CD-1 Mice. The settings on record: plasma, LC/MS. On the procedure:
Evaluation of Bioavailability in Male CD-1 Mice
Male CD-1 mice were dosed with the compound by iv (tail injection; vehicule: 45% β-cyclodextrin in saline) and by po (gavage; vehicule: 0.5% carboxy Methyl Cellulose+5% tween 80+saline).
Parent compound was administered at a dose of 20 mg/kg (i.v.) and 130 mg/kg (p.o.) whereas compound #1 and compound #2 were administered at 25 mg/kg (i.v. and p.o.)
The blood was collected in EDTA tube. Time points collected for iv are: 2, 5, 15, 30, 45, 60, 90, 120, 180 and 240 minutes post injection and for po are: 5, 15, 30, 45, 60, 90, 120, 180 and 240 minutes post injection. Three mice per time point. The blood was centrifuged to obtain plasma samples.
Plasma samples were extracted by protein precipitation with acetonitrile, evaporated and reconstituted with 50% MeOH/H2O. 30 μL was injected for the parent compound and for compound #1 and compound #2 10 μL was injected.
The standard curve range was between 0.1 to 30 μg/ml for the parent compound, 0.5 to 5 μg/ml for compound #1 and 0.01 to 2 μg/ml for compound #2. Adequate QC were performed.
The analysis was performed with a HPLC Agilent 1100 equipped with a MSD mass spectrometry detector with API-ESI source (LC/MS) supported by ChemStation software.
Analytical condition: The column was a Luna C18 (2) 5 μm 2×50 mm distributed by Phenomenex. A linear gradient of acetonitrile in 10 mM ammonium formate pH 6 was done at a flow rate of 0.25 ml/min.

Some compounds may have been tested in ways that are not shown here.

For `CC1CCC(C(=O)N(c2cc(-c3ccccc3)sc2C(=O)O)C2CCN(C)CC2)CC1` (stereo not drawn), where the note is “20 mg/kg (i.v.) and 130 mg/kg (p.o.)”, the Bioavailability is given as 0.4%.

With `CC1CCC(C(=O)N(c2cc(-c3ccccc3)sc2C(=O)OCOC(=O)C(C)(C)C)C2CCN(C)CC2)CC1` (stereo not drawn), the Bioavailability (25 mg/kg (i.v. and p.o.)) worked out at 8.7%.

`CC1CCC(C(=O)N(c2cc(-c3ccccc3)sc2C(=O)OCOC(=O)OC(C)C)C2CCN(C)CC2)CC1.Cl` (stereo not drawn) registered a Bioavailability (25 mg/kg (i.v. and p.o.)) of 3.8%.
